Results as given in patent publication US20260226096A1, “MODIFIED PROTEINS OR PEPTIDES FOR COVALENT TARGETING” (YEDA RESEARCH AND DEVELOPMENT CO. LTD., priority 2023, published 2026).

Legend:
[1] = Differential scanning fluorimetry for Im-E9 complexes; format: physicochemical; conditions: SYPRO Orange, protein 40 μM
E9 = biological target: T1, E9 (Escherichia coli, UniProt P09883); assay: Reaction between Im9 methacrylate and E9, intact protein LCMS; conditions: room temperature
T1 sequence (P09883 450-582 limits assumed): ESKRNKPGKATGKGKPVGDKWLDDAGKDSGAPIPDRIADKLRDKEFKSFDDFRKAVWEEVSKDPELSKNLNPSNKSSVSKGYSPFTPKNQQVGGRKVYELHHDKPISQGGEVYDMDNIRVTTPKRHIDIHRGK

## MELKHSISDYTEAEFLQLVTTIANADTSSEEELVKLVTHF(mC)EMTEHPSGSDLIYYPKEG DDDSPSGIVNTVKQWRAANGKSGFKQGLEHHHHHH [methacrylate-modified Im9 mutant]
[1]
  unfolding (melting) temperature: around 50 °C
E9
  conversion to the covalent complex within 16 hours: near quantitative conversion
